# Tests used:
# [1] = Ratio of binding affinities of pcp receptor(ki(nM)) to sigma opioid receptor(ki(nM))
# [2] = Binding affinity against sigma opioid receptor using [3H]pentazocine as radioligand.
Structure (SMILES),Ratio [1],Ki [2]
C=CCN1CC[C@]2(C)c3cc(O)ccc3C[C@@H]1[C@@H]2C,< 0.17,–
C[C@H]1[C@H]2Cc3ccc(O)cc3[C@@]1(C)CCN2Cc1ccccc1,178,–
C=CCN1CC[C@@]2(C)c3cc(O)ccc3C[C@H]1[C@H]2C,3.77,59.7 nM
C[C@@H]1[C@@H]2Cc3ccc(O)cc3[C@]1(C)CCN2Cc1ccccc1,> 14900,–

# — ChEMBL document CHEMBL1125499, “Enantiomeric N-substituted N-normetazocines: a comparative study of affinities at sigma, PCP, and mu opioid receptors” (J Med Chem, 1992)
